Experimental data taken from PMC8386128, “Evaluation of Short-Chain Antimicrobial Peptides With Combined Antimicrobial and Anti-inflammatory Bioactivities for the Treatment of Zoonotic Skin Pathogens From Canines” (Frontiers in Microbiology, 2021).

What was measured:
[1] = system: Trichophyton mentagrophytes MW766984; settings: 24 h
[2] = system: Microsporum gypseum MW766983; settings: 24 h

Q: Which MBC/MFC [1] does the source give for `CC[C@H](C)[C@H](NC(=O)CNC(=O)[C@H](CO)NC(=O)[C@H](CC(C)C)NC(=O)[C@H](CC(C)C)NC(=O)CN)C(=O)N[C@@H](CC(C)C)C(=O)NCC(=O)N[C@@H](C)C(=O)NCC(=O)N[C@@H](CCCCN)C(=O)N[C@@H](CCCCN)C(=O)N[C@H](C(=O)N[C@H](C(=O)N[C@@H](Cc1ccccc1)C(=O)O)C(C)C)[C@@H](C)CC` [Nigrocin-HLM] here?
A: 2 µg/mL (≈ 1.36 µM)

Q: And the MIC [1]?
A: 2 µg/mL (≈ 1.36 µM)

Q: What about the MIC [2] of the same compound?
A: 1 µg/mL (≈ 0.679 µM)

Converted amounts (≈) assume the structure as drawn.
